For the test, the system named is acetylated tubulin in LNCaP cells. It is filed as cell-based.

Molecules are shown by their SMILES. “Also recorded” adds a separate entry of the source.

With `c1cc(SSc2ccns2)sn1` [NU9056, 1,2-Bis(isothiazol-5-yl)disulfane], the acetylated tubulin entry is given as “decrease; also recorded: returned to basal levels; also recorded: no change”.

Source of the values: article PMC3466219 (PLoS ONE, 2012).
